Measurements published in US11945806B2, “Stabilization of amyloidogenic immunoglobulin light chains” (The Scripps Research Institute, priority 2019, dated 2024).

Assays:
WIL-FL C214S = details: 1 at 100 μM, LC 10 μM; 6.9×10^−3 without 1
ALMC2-derived LC = details: 1 at 100 μM, LC 5 μM, PK 100 nM; 3.83×10^−4 s^−1 without 1

SMILES: CCN(CC)c1ccc2c(C)cc(=O)oc2c1 [Compound 1, 7-diethylamino-4-methylcoumarin]
- rate constant of PK proteolysis (WIL-FL C214S): 0.0028 s⁻¹
- protection from proteolysis by PK (5J8 LC): protects the 5J8 LC from proteolysis by PK
- proteolysis after 1 h of incubation by PK (ALMC2-derived LC): no proteolysis was detected
